Measurements as given in article PMC9974934, “Bifunctional small molecules targeting PD-L1/CXCL12 as dual immunotherapy for cancer treatment” (Signal Transduction and Targeted Therapy, 2023).
Where two headings read alike, the source gives them in different places.

Amino acid sequences for entries named in this document (tags omitted). Residues count along the entry.
UniProt Q9NZQ7, 19-238 limits assumed: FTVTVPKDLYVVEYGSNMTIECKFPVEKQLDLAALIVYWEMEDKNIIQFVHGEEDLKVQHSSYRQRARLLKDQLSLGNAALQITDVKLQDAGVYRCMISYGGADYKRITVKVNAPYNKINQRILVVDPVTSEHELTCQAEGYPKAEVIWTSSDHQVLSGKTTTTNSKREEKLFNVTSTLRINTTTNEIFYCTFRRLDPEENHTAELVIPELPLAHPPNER

Target: PD-1/PD-L1 interaction (Homo sapiens, UniProt Q9NZQ7)
Experiment: PD-1/PD-L1 HTRF assay
Assay type: biochemical
[1] = read-out: IC50, anti-PD-1/PD-L1 potency, values given in μM

SMILES | IC50 [1] [µM] | IC50 (read-out: IC50, anti-PD-1/PD-L1 potency) [µM]
CCOC(=O)COc1cc(OCc2cccc(-c3ccccc3)c2C)c(Cl)cc1CN1CCCCC1C(=O)O (stereo not drawn) | 1 | 
Cc1c(COc2cc(OCc3ccc(OC(F)(F)F)cc3)c(CN3CCCCC3C(=O)O)cc2Cl)cccc1-c1ccccc1 (stereo not drawn) | 1 | 
Cc1c(COc2cc(OCc3cccc(C#N)c3)c(CN3CCCCC3C(=O)O)cc2Cl)cccc1-c1ccccc1 (single isomer, unassigned) |  | 0.0145
